For test [1], the target named is GST tagged Bcl w delta C29 protein (UniProt Q92843). Put plainly: AlphaScreen competition, GST detection; competitor biotinylated Bim BH3-26 peptide. (In Alpha technology, singlet oxygen from a donor bead excites a nearby acceptor bead.)
The next test has as its target Bcl-2 ΔC22 (UniProt P10415). Kind of test: Biacore solution competition; competitor immobilised mouse wtBimBH3; head prints Bcl-w ΔC22, text says Bcl-2 ΔC22. A general note: SPR reads the build-up and loss of mass on a sensor chip optically.
Test [2] addresses 6-His tagged Bcl w delta C10 protein (UniProt Q92843). Put plainly: Biacore solution competition; competitor immobilised mouse wtBimBH3.

Broadly, the IC50 is the concentration at which inhibition is half-maximal. Read a high IC50 as lower potency. With hsBimL/Bod (81-106), … (peptide), the half-inhibitory concentration (IC50) in test [1] was 0.1 nM; with Bcl-2 ΔC22, 2.6 nM; in test [2], 6 nM.

Source of the values: patent publication US20070032417A1, “Peptides and therapeutic uses thereof” (priority 2002, published 2007).
